Laboratory results: publication PMC7737621 (Journal of medicinal chemistry, 2020)
Where a name gives a salt, the structure may show the parent alone.

Assay: physchem
Conditions: pH 7.4

SMILES: CCCC(C)COc1ccc([C@H](Cc2nnc(N)o2)NC(=O)[C@@H](C)c2ccccc2)cc1 (stereo partly drawn) [Compound 84, (2S)-N-[(1S)-2-(5-Amino-1,3,4-oxadiazol-2-yl)-1-{4-[(2-methylpentyl)oxy]phenyl}ethyl]-2-phenylpropanamide Hydrochloride]
- solubility kinetic: < 1 µM
